Results taken from ChEMBL document CHEMBL1131066, “2-Substituted aminopyrido[2,3-d]pyrimidin-7(8H)-ones. structure-activity relationships against selected tyrosine kinases and in vitro and in vivo anticancer activity” (J Med Chem, 1998).

Amino acid sequences for entries named in this document (tags omitted). A change or cut given only in a name is not applied to a line headed by its entry.
UniProt P05622: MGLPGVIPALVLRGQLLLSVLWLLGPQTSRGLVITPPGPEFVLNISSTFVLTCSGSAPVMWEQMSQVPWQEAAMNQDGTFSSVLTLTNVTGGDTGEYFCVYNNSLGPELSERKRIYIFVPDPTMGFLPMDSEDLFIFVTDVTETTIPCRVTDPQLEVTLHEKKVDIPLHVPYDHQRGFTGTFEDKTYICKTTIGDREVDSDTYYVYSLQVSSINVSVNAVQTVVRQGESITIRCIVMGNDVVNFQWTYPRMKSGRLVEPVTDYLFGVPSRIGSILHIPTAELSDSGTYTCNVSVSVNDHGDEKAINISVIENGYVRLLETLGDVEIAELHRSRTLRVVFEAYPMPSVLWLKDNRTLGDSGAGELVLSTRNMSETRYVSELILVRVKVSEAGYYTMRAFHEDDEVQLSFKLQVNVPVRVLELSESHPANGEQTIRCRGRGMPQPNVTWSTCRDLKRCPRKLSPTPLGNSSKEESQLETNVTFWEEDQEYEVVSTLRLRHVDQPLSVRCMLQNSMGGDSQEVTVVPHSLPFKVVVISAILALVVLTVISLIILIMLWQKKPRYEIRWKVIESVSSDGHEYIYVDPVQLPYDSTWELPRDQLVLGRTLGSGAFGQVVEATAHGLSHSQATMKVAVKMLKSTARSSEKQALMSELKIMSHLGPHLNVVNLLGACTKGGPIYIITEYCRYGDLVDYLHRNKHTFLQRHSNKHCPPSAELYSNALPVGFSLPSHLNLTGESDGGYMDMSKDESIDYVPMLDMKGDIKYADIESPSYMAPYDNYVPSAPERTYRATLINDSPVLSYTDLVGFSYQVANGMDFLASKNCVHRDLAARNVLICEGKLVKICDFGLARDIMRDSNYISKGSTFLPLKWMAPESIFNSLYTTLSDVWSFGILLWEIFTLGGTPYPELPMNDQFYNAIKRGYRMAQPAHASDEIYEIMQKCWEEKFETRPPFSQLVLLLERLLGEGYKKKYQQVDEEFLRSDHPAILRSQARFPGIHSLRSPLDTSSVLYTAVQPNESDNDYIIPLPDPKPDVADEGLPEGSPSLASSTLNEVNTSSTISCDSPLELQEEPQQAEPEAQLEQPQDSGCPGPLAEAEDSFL
UniProt P11362, whole entry: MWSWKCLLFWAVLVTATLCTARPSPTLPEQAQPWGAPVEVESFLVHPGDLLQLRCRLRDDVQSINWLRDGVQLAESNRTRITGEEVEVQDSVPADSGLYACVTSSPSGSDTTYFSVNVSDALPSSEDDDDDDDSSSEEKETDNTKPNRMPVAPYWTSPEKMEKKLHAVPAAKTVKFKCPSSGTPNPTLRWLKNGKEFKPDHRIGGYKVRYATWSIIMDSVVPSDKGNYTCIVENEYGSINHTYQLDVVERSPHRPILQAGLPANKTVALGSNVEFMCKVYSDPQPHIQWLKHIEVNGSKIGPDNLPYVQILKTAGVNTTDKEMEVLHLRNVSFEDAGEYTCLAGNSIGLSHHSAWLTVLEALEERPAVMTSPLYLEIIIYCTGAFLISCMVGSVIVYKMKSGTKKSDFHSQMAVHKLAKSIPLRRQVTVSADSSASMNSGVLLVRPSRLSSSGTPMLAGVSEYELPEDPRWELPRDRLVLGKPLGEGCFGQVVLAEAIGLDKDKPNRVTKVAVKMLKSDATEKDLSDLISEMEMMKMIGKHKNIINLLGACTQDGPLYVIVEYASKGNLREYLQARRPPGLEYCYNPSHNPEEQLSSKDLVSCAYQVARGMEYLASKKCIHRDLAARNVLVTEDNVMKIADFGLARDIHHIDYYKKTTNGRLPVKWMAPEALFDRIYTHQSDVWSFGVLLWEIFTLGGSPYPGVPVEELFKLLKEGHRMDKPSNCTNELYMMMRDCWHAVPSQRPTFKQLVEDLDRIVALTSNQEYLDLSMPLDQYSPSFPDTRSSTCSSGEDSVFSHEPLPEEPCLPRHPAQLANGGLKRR

What was measured:
[1] = molecular target: Platelet-derived growth factor receptor beta (Mus musculus, UniProt P05622)
[2] = molecular target: Fibroblast growth factor receptor 1 (Homo sapiens, UniProt P11362); assay: Inhibitory concentration evaluated against fibroblast growth factor receptor 1.

| Structure (SMILES) | IC50 [1] [nM] | IC50 [2] [nM] |
| --- | --- | --- |
| CN1CCN(CCCCNc2ncc3cc(-c4c(Cl)cccc4Cl)c(=O)n(C)c3n2)CC1 | 890 | – |
| COc1cccc(Nc2ncc3cc(-c4c(Cl)cccc4Cl)c(=O)n(C)c3n2)c1 | 530 | 370 |
| Cn1c(=O)c(-c2c(Cl)cccc2Cl)cc2cnc(Nc3cccnc3)nc21 | 120 | – |
